Laboratory results reported in ChEMBL document CHEMBL5625255, “Discovery of a novel series of potent carbonic anhydrase inhibitors with selective affinity for μ Opioid receptor for Safer and long-lasting analgesia” (2023).

Target: Kappa-type opioid receptor (Cavia porcellus, UniProt P41144)
Assay: Displacement of [3H]-U69,593 from KOR in guinea pig brain membrane by liquid scintillation counter analysis

NC(=O)C1(Nc2ccccc2)CCN(CCc2ccc(S(N)(=O)=O)cc2)CC1
Ki: > 2 µM
